System: pERK
Assay: Cytokine-stimulated phosphorylation in AML cell populations (BM or PB of AML patients)
Format: cell-based, human
Details: patient AML8 (Example 3)
Description: To assess the signal transduction response after growth factor simulation, a series comprising two sets of tubes including about 3×10^6 cells/100 μL were incubated at 37° C. for 30 minutes. After this pre-incubation period, tubes with then processes with either a stimulant or inhibitor. For signal stimulation, tubes were incubated at 2 minutes, 3.5 minutes, 7 minutes, 15 minutes, and 30 minutes with one of the following cytokines to stimulate protein phosphorylation: 10 ng/100 μL SCF, 50 ng/100 μL FL, 10 ng/100 μL GM-CSF, 10 ng/100 μL IL-3, or 10 ng/100 μL G-CSF. […] Stained cells were examined using either GALIOS flow cytometer (Beckman Coulter) or CYAN ADP (Beckman Coulter) equipped with 488 nm, 405 nm and 635 nm lasers to detect the degree of fluorescence. Data were analyzed using FCS Express (De Novo Software, CA) analysis software.
Specific phosphoprotein expression of pERK, pS6, pAKT, pSTAT5, and pSTAT3 was examined in seven discrete phenotypically defined populations based on 7-color immunophenotyping (FIG. 1). The percent of responding (phosphorprotein positive) cells for each of these populations was determined from individual single parameter histograms based on a fixed integration region set on the inhibitor treated control at about 3% positives. […]

B1: Interleukin- 3 (protein, UniProt P08700 20-152, looked up)
Interleukin-3: APMTQTTPLKTSWVNCSNMIDEIITHLKQPPLPLLDFNNLNGEDQDILMENNLRRPNLEAFNRAVKSLQNASAIESILKNLLPCLPLATAAPTRHPIHIKDGDWNEFRRKLTFYLKTLENAQAQQTTLSLAIF
notes: colony-stimulating cytokine
pERK, AML Sample: 57.3

From patent US20130210034A1, “COMPLEX PHOSPHOPROTEIN ACTIVATION PROFILES” (BECKMAN COULTER, INC., priority 2005, published 2013)
